Laboratory results as given in patent EP4778920A1, “INDAZOLONE COMPOUND, PREPARATION METHOD THEREFOR, PHARMACEUTICAL COMPOSITION, AND USE” (Shanghai Institute of Materia Medica, Chinese Academy of …, priority 2023, dated 2025).

Experiments:
Format in all cases: cell-based
MM.1S cells = test: MM.1S cell proliferation inhibition (MTS assay); conditions: Homo sapiens, MM1.S, 168 h, 7 days incubation, read-out: MM1.S (IC50, Inhibitory Activity of Compounds on MM.1S Cell Proliferation)
Description: The cell concentration was diluted according to a 7-day incubation period, and 180 µL of cell suspension was added to each well of a 96-well plate, with 20,000 cells per well. […] The test compounds were prepared from a 10 mM stock solution and serially diluted in a 5-fold gradient, and 20 µL of the diluted solution was added to each compound-treated well (final DMSO concentration also 0.2%). The cells were incubated in a 37 °C, 5% CO2 incubator for 7 days. After incubation, the reaction solution was prepared according to the MTS assay kit instructions (Promega, G5430), and 20 µL was added to each well. The plate was incubated at 37 °C with 5% CO2 for 3-4 hours. The absorbance at 490 nm was measured using a microplate reader, and the absorbance at 690 nm was used as the background value. […] The IC50 values for cell proliferation inhibition were determined using GraphPad Prism 5.0. Each experiment was repeated three times, and three parallel replicates were performed in each experiment to calculate the mean value and standard deviation.
Inhibitory Activity of Compounds on MM.1S Cell Proliferation

MV-4-11 cells = test: MV-4-11 cell proliferation inhibition (MTS assay); conditions: Homo sapiens, MV4-11, 168 h, 7 days incubation, read-out: MV-411 (IC50, Inhibitory Activity of Compounds on MV-4-11 Cell Proliferation)
Description: MV-4-11 cells were cultured in IMDM medium supplemented with 10% fetal bovine serum and collected. The cell concentration was diluted according to a 7-day incubation period, and 180 µL of cell suspension was added to each well of a 96-well plate, resulting in 2,000 cells per well. […] The test compounds were prepared from a 10 mM stock solution and serially diluted in a five-fold gradient, and 20 µL of the diluted compound solution was added to each compound-treated well (final DMSO concentration 0.2%). The cells were incubated in a 37 °C, 5% CO2 incubator for 7 days. After incubation, the reaction solution was prepared according to the MTS assay kit instructions (Promega, G5430), and 20 µL was added to each well. The plate was further incubated at 37 °C with 5% CO2 for 3-4 hours. The absorbance at 490 nm was measured using a microplate reader, and the absorbance at 690 nm was used as the background value. The final raw data were calculated as OD490 - OD690. […] The IC50 values for cell proliferation inhibition were determined using GraphPad Prism 5.0. Each experiment was repeated three times, and three parallel replicates were performed in each experiment to calculate the mean value and standard deviation.
Table 3. Inhibitory Activity of Compounds on MV-4-11 Cell Proliferation

Mino cells = test: Mino cell proliferation inhibition (MTS assay); conditions: Homo sapiens, 72 h, 3 days incubation, read-out: Mino (IC50, Inhibitory Activity of Compounds on Mino Cell Proliferation)
Description: The cell concentration was diluted according to a 3-day incubation period, and 90 µL of cell suspension was added to each well of a 96-well plate, resulting in 8,000 cells per well. […] The test compounds were prepared from a 10 mM stock solution and serially diluted in a five-fold gradient. Similarly, 10 µL of the diluted compound solution was added to each compound-treated well (final DMSO concentration 0.2%).
The cells were incubated in a 37 °C, 5% CO2 incubator for 3 days. After incubation, the reaction solution was prepared according to the MTS assay kit instructions (Promega, G5430), and 20 µL was added to each well. The plate was further incubated at 37 °C with 5% CO2 for 3-4 hours. The absorbance at 490 nm was measured using a microplate reader, and the absorbance at 690 nm was used as the background value. The final raw data were calculated as OD490 - OD690. […] The IC50 values for cell proliferation inhibition were determined using GraphPad Prism 5.0. Each experiment was repeated three times, and three parallel replicates were performed in each experiment to calculate the mean value and standard deviation.
Table 2. Inhibitory Activity of Compounds on Mino Cell Proliferation

SMILES: Nc1cccc2c1CN(C1CCC(=O)NC1=O)C2=O (stereo not drawn) [Lenalidomide, reference compound]
- IC50 (MM.1S cells): < 0.2 µM
- IC50 (MV-4-11 cells): > 20 µM
- IC50 (Mino cells): > 10 µM
